Reference: article PMC4032197 (Journal of Medicinal Chemistry, 2014)

The chains behind the UniProt entries cited, without tags or fusion partners. Where a name states a change or a piece, a line headed by the entry shows the natural chain unless it says otherwise.
UniProt P43116: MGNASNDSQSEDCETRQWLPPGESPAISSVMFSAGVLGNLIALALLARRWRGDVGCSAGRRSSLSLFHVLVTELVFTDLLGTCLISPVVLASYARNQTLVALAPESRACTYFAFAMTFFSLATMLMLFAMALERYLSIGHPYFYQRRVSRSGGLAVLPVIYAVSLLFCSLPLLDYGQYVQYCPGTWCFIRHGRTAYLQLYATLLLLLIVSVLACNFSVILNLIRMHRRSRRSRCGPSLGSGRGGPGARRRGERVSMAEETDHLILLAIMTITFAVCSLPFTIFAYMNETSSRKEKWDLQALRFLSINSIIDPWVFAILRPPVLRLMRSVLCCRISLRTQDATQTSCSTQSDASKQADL

How the values were obtained:
[1] = PK study in C57BL/6 mice; cited from earlier work
human EP2 receptors = human EP2 receptors (Homo sapiens, UniProt P43116)
C6 glioma cells = conditions: in vitro therapeutic index

Structure (SMILES): COc1cc(/C=C/C(=O)NCCn2c(C(F)(F)F)cc3ccccc32)cc(OC)c1OC [5d, (E)-N-(2-(2-(Trifluoromethyl)-1H-indol-1-yl)ethyl)-3-(3,4,5-trimethoxyphenyl)acrylamide]
- plasma half-life [1]: 1.7 h

Structure (SMILES): COc1cc(CCC(=O)NCCn2c(C)cc3ccccc32)cc(OC)c1OC [5v]
- fold less EP2 potency in comparison to 5a (human EP2 receptors): 90 fold

Structure (SMILES): Cc1cc(/C=C/C(=O)NCCn2c(C)cc3ccccc32)cc(C)c1F [5c]
- therapeutic index CC50/KB(EP2) (C6 glioma cells): 108 000
